{
  "source": "patent US20050202488A1",
  "about": "“Assay for therapies that inhibit expression of the cytosolic Cu/Zn superoxide dismutase (SOD1) gene” (The General Hospital Corporation, priority 2004, published 2005)",
  "origin": "cited, not measured here",
  "system": "ALS patients",
  "conditions": "cited from earlier work",
  "data": [
    {"smiles": "Nc1nc2ccc(OC(F)(F)F)cc2s1", "note": "[Riluzole]", "values": [
      {"measurement": "tolerability among patients", "result": "generally well tolerated"},
      {"measurement": "prolongation of tracheotomy-free survival", "setting": "compared to placebo, clinical trials in America and Europe", "result": "about 15%"},
      {"measurement": "improvement in survival overall", "setting": "on average", "result": "~3", "unit": "month"}
    ]}
  ]
}
